Curated experimental data: melting point values

Source: data files of OPERA 2.9 (Mansouri et al.), github.com/kmansouri/OPERA.

Melting points are in °C.

| compound | melting point (°C) |
|---|---|
| N#Cc1c(CCl)cn2ccccc12 | 144 |
| O=c1cc(CCl)c2c(ccc3ccccc32)o1 | 120 |
| CC(C)N1C(=O)NC(=O)C1=O | 94 |
| O=[N+]([O-])c1ccc(S(=O)(=O)C(F)(F)F)cc1 | 82 |
| O=C1CCC(=O)[C@H]2[C@@H]1[C@H]1CC[C@@H]2C1=C(Cl)Cl | 175.5 |
| Cc1ccc(S(=O)(=O)C(I)I)cc1 | 136 |
| O=C1C=CC(=O)N1C1CC1 | 55 |
| O=S(CCCl)c1ccccc1 (stereo not drawn) | 35 |
| C=C(C)C(=O)OCC(F)(F)F | -46.6 |
| CCOC(=O)c1c(-c2ccc(C)c(C)c2)csc1N | 81.5 |
| O=C(O)/C=C/c1cccc(F)c1 | 166.5 |
| CC(=O)C(/N=N/c1ccc(C)cc1[N+](=O)[O-])C(=O)Nc1ccc(Cl)cc1 (stereo partly drawn) | 236 |
| O=C(O)CCCc1ccc(Br)s1 | 56 |
| O=C(O)CC1c2ccccc2Oc2ccccc21 | 154 |
| COc1ccccc1OCCBr | 40 |
| C=CCNc1nc2c(s1)CCCC2 | 78 |
| CNc1ccccc1C(=O)OC1CC2(C)C(O)CC3(C)C4(C)CCC5C(C)(CO)C(OC6OCC(OC7OC(CO)C(O)C(O)C7O)C(O)C6OC6OC(CO)C(O)C(O)C6O)CCC5(C)C4CC4OC43C2CC1(C)C=O (stereo not drawn) | 230.5 |
| OCC1(O)COC(O)(CO)CO1 (stereo not drawn) | 78.5 |
| Oc1ccccc1-c1cccs1 | 41.25 |
| OCC1COC(Cn2ccnc2)(c2ccc(Cl)cc2Cl)O1 (stereo not drawn) | 140.6 |
| CC(C)(C)c1ccccc1OCC(=O)O | 146 |
| CCSC(N)=O | 109 |
| Fc1ccc(-c2nc(CCl)no2)cc1 | 53 |
| CC(=O)OCCS(=O)(=O)c1ccc(N2CCC(c3cc(Cl)c(Cl)cc3C)=N2)cc1 | 189 |
| CC(C)(C)OC(=O)C(C)(C)O/N=C(\C(=O)Sc1nc2ccccc2s1)c1csc(N)n1 | 120 |
| CC1(C)Nc2cccc3cccc(c23)N1 | 110 |
| Cc1[nH]c(=O)[nH]c(=O)c1C#N | 352 |
| C[C@]12CCC(=O)C=C1CC[C@@H]1[C@@H]2CC[C@@]2(C)[C@H]1CC[C@]2(O)[C@H](O)CO | 190 |
| C=C(C)C(=O)OCCCCCCCCCCOC(=O)C(=C)C | -10.8 |
| NNC(=O)c1ccc2ccccc2n1 | 134 |
| CCCCC(CC)CCc1ccc2ccccc2c1N=Nc1ccc(N=Nc2ccccc2C)cc1C (stereo not drawn) | -13 |
| Nn1c(-c2ccccc2Br)n[nH]c1=S | 189 |
| CC(=O)Oc1ccccc1C(=O)OCC(=O)NCC(N)=O | 186 |
| CC(=O)c1cc(Cl)cc(CCl)c1O | 73 |
| O=C(O)c1cc2ccc(Cl)cc2[nH]1 | 243 |
| CCCCCCCCC(=O)OCC(C)OC(=O)CCCCCCCC (stereo not drawn) | -33.5 |
| CC(=O)c1ccc(CC(=O)O)cc1 | 110 |
| O=C(O)CC(Br)C(=O)c1ccc(Cl)cc1 (stereo not drawn) | 115 |
| Cc1cc(C)c(C(N)=O)c(Cl)n1 | 173 |

The 4 lowest values of melting point among the entries above:

| compound | melting point (°C) |
|---|---|
| C=C(C)C(=O)OCC(F)(F)F | -46.6 |
| CCCCCCCCC(=O)OCC(C)OC(=O)CCCCCCCC (stereo not drawn) | -33.5 |
| CCCCC(CC)CCc1ccc2ccccc2c1N=Nc1ccc(N=Nc2ccccc2C)cc1C (stereo not drawn) | -13 |
| C=C(C)C(=O)OCCCCCCCCCCOC(=O)C(=C)C | -10.8 |

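OPERA's authors assembled the values from existing databases and did not measure them anew. The files give a single number for a compound and property, which may rest on several reports. How each value was measured is not recorded, so precision varies. Where a salt, mixture or single isomer is drawn, the source does not say that exactly this form was tested. Some entries may be limits or estimates that an upstream database listed as plain numbers.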